## Yeast mating assay 1: variants of the scFv Ab-14

Data: MIT Lincoln Laboratory AlphaSeq set, Engelhart et al. 2022, doi:10.1038/s41597-022-01779-4, as distributed in FLAb.

Target peptide (SARS-CoV-2 spike, HR2 region): PDVDLGDISGINAS

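The parent was found by panning a naive human phage display library on the peptide. Variants in AAYL49 differ from the parent at up to three CDR positions; double and triple changes were sampled at random. AlphaSeq pools MATa yeast showing the antibodies with MATalpha yeast showing the peptide. The frequency of each diploid, read from paired DNA barcodes, reflects how well the two displayed proteins bind. The ratio of observed to expected reads was calibrated, replicate by replicate, on BCL2-family standards whose Kd was known from biolayer interferometry. Mating was done three times.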

Ab-14 is the parent antibody, in scFv form: VH, then three GGGGS repeats, then VL. The light chain is unchanged in all variants.
VH: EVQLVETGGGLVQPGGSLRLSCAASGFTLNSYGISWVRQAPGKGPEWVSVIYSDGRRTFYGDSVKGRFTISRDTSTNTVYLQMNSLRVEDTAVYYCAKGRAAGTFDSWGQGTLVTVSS
VL: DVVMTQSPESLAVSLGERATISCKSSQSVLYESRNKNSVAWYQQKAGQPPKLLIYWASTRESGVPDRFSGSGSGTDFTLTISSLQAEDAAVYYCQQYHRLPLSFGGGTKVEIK

Each variant is given by its three heavy chain CDRs, as the data file delimits them; those of the parent are GFTLNSYGIS, VIYSDGRRTFYGDSVK, GRAAGTFDS.
The read-out is the apparent dissociation constant on a log10 scale (nM): the lower, the stronger.
A pair that was not seen in that replicate is written "nd"; this usually means weak binding, but a binder can also be missed.

CDR-H1,CDR-H2,CDR-H3,"log10 Kd, replicates",signal with controls
TFTLNSYHIS,VIYSDGRRTFYGDSVK,GRAAGTFHS,nd / nd / nd,0 of 9
GFTLPSYGIS,VIYSDRRRTFYGDSWK,GRAAGTFDS,nd / nd / nd,0 of 9
GSTLNSYGIH,VIYSDGRRTFYGDSVK,GNAAGTFDS,2.59 / 2.52 / 2.66,3 of 9 (3.84)
GFTLNSYDIS,VIYSDGKRFFYGDSVK,GRAAGTFDS,nd / nd / 2.99,1 of 9 (4.11)
GFFLNSYGIS,VMYSDGRRTQYGDSVK,GRAAGTFDS,nd / 3.78 / 4.97,3 of 9 (4.85)
GFTLNSYGIS,VSSSDLRRTFYGDSVK,GRAAGTFDS,nd / nd / nd,0 of 9
GFTLNSVSIS,VIYSDGRRTKYGDSVK,GRAAGTFDS,nd / 2.39 / nd,0 of 9
GFTLGSYGIS,VIYSDGRRTFYNDSVK,GRAMGTFDS,2.81 / nd / nd,0 of 9
GFTLNSYGIS,CIYSDGRRTFYGDSVV,GRAEGTFDS,nd / nd / nd,1 of 9 (3.42)
GLTLNSYGIS,VPYSDGWRTFYGDSVK,GRAAGTFDS,nd / nd / nd,1 of 9 (1.42)
GFTLNSYGIS,VIYSDGRRFFYGDSVK,GRYRGTFDS,5.93 / 2.96 / 4.38,7 of 9 (4.88)
GFTSNSYGIS,VIYSDGRRTRYGDSVK,GRAAETFDS,5.98 / 3.81 / nd,3 of 9 (4.98)
GFTLNSYGIS,VIYIDGRRTFYGDSVK,KFAAGTFDS,nd / nd / nd,1 of 9 (2.64)
GATLNSYGIS,VIYSDGRRTFYGDSVC,GRAAGTQDS,3.39 / nd / nd,0 of 9
GFTLNSRGIS,VIYSDGNRTFYGDSVK,GRAAGFFDS,nd / nd / nd,2 of 9 (4.24)
GFTLNSYGIC,VIYSDGRRTFYGDSVK,GRAAGMFDS,nd / nd / nd,0 of 9
GFTLNSYGIR,VIYSDGRRTFYGDSVK,GRAAGTFDL,nd / nd / 1.58,0 of 9
GHTLNSYGIS,VIYLFGRRTFYGDSVK,GRAAGTFDS,nd / nd / nd,0 of 9
GFTLNSKGIS,VIYSDGARTFYGGSVK,GRAAGTFDS,nd / nd / nd,0 of 9
HFTLNSYGIS,VIYSDGAITFYGDSVK,GRAAGTFDS,nd / 3.57 / 4.28,9 of 9 (4.67)
GFTLNSYKIS,VIYSDGRRAFYGLSVK,GRAAGTFDS,nd / nd / 3.29,2 of 9 (4.12)
GFTLNDYSIS,VIYSDGERTFYGDSVK,GRAAGTFDS,nd / nd / nd,5 of 9 (4.35)
GFTLNPYGIS,VIYSDGRRTFYGCSVK,GYAAGTFDS,nd / 4.04 / nd,1 of 9 (2.51)
GFTLNSYGIS,VIYSDGRRTFYGDSVK,GGAAGTFDL,0.49 / 0.90 / 0.80,0 of 9
GNTKNSYGIS,VIYSDGRRTFHGDSVK,GRAAGTFDS,nd / nd / nd,0 of 9
GFTLNSYGMR,VIYSDGRRTFYGDSVK,GRAVGTFDS,nd / nd / nd,0 of 9
KFTNNSYGIS,VIYSDGRRTFYGDSVK,SRAAGTFDS,6.29 / 5.05 / nd,6 of 9 (4.23)
GFTLNVYGIS,VIYSDGRRTFYGCEVK,GRAAGTFDS,4.79 / nd / 4.42,8 of 9 (4.80)
GFTLNSYGIS,VIYSDGVRTFYGDQVK,YRAAGTFDS,5.51 / 3.45 / nd,3 of 9 (4.54)
GFTLNSYGIS,VIYSDHRRTFYGYSEK,GRAAGTFDS,nd / nd / nd,1 of 9 (5.48)
GFTLNSYGIS,SIYSDGRRTFYGDTYK,GRAAGTFDS,nd / nd / nd,4 of 9 (3.44)
GFTLNSYGIS,VIYSDGRLTFMRDSVK,GRAAGTFDS,nd / nd / 3.85,4 of 9 (3.89)
GFTLNSYGIS,VIYSDGRGTFYGMSVV,GRAAGTFDS,nd / nd / nd,0 of 9
GFTLNSYGIS,VIMSDGRRTKSGDSVK,GRAAGTFDS,nd / nd / nd,0 of 9
GITLNSYGIS,VIYMDGRFTFYGDSVK,GRAAGTFDS,nd / nd / nd,3 of 9 (3.60)
GFTLNSYGIS,VIYSDYRRTFYGDSVD,GRAAGTFYS,nd / 3.50 / nd,0 of 9
GFYLNSYGIS,VIYSDGFWTFYGDSVK,GRAAGTFDS,nd / nd / nd,0 of 9
GFTLNSYGIS,VNYSDGRRTFYGDSVK,LRAAGTFDS,4.69 / nd / nd,4 of 9 (4.56)
GFTLNSYGIS,VIYSDGRRTFWGDSVK,GRAATTFDS,3.44 / nd / nd,7 of 9 (3.59)
GFTLNSQGIS,VIYSDKRRTTYGDSVK,GRAAGTFDS,nd / nd / 4.07,2 of 9 (3.92)
GFTLNSYGIS,VIYSDVRRTFYGDSVK,GRAFGTFDS,nd / nd / nd,0 of 9
GFTLNSYGIN,VIYSDGRRLFYGDSVK,GRAAGTIDS,nd / 3.22 / nd,2 of 9 (4.01)
GFTLNSYGIS,VIYSDGRRTFYGDSVK,DDAPGTFDS,0.91 / 0.94 / 0.75,1 of 9 (3.29)
GFTTNSRGIY,VIYSDGRRTFYGDSVK,GRAAGTFDS,nd / nd / nd,0 of 9
GFTLNSYGIS,VIYSDGRRYFYGDSVK,GRVAYTFDS,3.83 / 4.32 / nd,1 of 9 (5.00)
GFTLNSYGIS,LIYSDGRATFYGDSHK,GRAAGTFDS,nd / nd / nd,0 of 9

Empty control strains, which show no peptide, gave a signal in 15% of pairings with library AAYL49; the median was 4.06 and 95% of these signals were weaker than 2.83. No background was subtracted. Also given: how often the same scFv was detected with the empty control strains, with their mean in brackets.
Parent in this assay: reference entry 0.65, copy in this library 4.11 (one replicate of three).